{
  "source": "patent US20170238569A1",
  "about": "“EDIBLE FOOD PRESERVATIVE” (EMPIRE TECHNOLOGY DEVELOPMENT LLC, priority 2016, published 2017)",
  "settings": "isolated product (early fractions), precipitated with ethanol",
  "data": [
    {"substance": "ascorbic gallate ester [Example 7]", "values": [
      {"measurement": "solubility in water", "value": "water soluble"}
    ]}
  ]
}
